Source: patent US20100278776A1, “PHARMACEUTICAL COMPOSITIONS FOR MODULATING A KINASE CASCADE AND METHODS OF USE THEREOF” (Kinex Pharmaceuticals, LLC, priority 2007, published 2010)

Chains of the proteins cited; added tags and fusions are not shown.
UniProt P23458, whole entry: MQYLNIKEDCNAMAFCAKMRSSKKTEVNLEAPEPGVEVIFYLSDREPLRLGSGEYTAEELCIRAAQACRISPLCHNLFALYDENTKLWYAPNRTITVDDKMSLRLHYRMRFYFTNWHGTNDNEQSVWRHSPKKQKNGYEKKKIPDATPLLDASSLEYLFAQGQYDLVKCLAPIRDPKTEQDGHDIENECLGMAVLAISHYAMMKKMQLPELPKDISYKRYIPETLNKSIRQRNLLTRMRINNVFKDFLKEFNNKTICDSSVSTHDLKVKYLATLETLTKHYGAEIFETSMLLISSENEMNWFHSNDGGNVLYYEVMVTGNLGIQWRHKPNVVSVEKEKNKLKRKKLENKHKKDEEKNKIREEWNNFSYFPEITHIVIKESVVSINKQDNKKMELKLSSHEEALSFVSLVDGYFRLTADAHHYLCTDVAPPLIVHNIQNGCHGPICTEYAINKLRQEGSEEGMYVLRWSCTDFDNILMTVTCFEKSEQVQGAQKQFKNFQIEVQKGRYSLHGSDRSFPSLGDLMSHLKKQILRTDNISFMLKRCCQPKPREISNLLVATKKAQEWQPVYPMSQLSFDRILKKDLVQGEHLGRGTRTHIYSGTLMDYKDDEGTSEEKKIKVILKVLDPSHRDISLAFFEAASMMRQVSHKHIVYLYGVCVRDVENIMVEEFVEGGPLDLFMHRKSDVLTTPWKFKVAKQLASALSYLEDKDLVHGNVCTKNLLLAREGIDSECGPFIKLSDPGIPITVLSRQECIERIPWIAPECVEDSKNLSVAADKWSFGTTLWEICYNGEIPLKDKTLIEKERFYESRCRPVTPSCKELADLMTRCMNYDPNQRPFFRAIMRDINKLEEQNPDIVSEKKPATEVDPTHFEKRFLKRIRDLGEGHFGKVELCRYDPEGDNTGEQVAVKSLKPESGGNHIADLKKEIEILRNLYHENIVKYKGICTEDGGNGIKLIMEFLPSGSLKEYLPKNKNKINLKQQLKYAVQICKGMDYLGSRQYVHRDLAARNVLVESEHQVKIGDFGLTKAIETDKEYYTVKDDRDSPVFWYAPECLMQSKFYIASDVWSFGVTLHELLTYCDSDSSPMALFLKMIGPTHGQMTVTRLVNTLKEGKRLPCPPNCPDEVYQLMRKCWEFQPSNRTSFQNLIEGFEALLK
UniProt O60674, whole entry: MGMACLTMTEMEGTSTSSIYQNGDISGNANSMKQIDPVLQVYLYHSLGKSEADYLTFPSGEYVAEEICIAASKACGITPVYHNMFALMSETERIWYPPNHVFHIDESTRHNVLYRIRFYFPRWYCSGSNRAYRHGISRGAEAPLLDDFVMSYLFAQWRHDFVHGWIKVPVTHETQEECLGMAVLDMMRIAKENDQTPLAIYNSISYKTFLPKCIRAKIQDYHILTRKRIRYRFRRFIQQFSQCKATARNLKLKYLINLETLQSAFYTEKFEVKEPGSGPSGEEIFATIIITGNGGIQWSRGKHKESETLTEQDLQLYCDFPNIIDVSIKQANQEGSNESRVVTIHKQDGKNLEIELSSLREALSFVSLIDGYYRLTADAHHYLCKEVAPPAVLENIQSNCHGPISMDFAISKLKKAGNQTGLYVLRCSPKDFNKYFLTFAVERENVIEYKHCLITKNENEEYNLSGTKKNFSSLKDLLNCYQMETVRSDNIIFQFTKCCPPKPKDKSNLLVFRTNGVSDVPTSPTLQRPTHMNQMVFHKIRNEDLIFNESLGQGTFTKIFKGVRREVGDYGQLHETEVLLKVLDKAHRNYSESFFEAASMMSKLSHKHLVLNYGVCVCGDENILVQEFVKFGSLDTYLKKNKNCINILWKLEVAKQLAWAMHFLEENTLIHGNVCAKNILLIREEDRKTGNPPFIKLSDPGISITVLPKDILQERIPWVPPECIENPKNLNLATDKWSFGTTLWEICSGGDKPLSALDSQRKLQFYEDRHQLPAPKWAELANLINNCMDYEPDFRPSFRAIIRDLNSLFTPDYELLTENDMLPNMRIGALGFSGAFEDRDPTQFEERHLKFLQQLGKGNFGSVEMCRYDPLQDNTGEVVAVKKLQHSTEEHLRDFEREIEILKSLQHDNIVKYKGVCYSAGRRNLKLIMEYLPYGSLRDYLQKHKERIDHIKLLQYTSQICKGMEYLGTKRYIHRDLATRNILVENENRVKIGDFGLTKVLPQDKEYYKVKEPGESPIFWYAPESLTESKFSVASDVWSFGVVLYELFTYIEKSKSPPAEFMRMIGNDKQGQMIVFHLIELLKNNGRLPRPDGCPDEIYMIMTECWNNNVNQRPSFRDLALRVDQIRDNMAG

Experiments:
[1] = target: Src (Homo sapiens, UniProt P12931, Y530F); assay: Src kinase activity in whole cells (auto- and transphosphorylation, PAGE/antibodies); format: cell-based
[2] = system: Caspase-3 cleavage; assay: Induction of apoptosis via Caspase 3 cleavage; format: cell-based; details: HT29 and c-Src527F/NIH-3T3 cells; listed as compound (I)
[3] = system: FAK Y397; assay: FAK autophosphorylation in whole cells; format: cell-based; details: c-Src527F/NIH3T3 cells
[4] = system: EGFR tyrosine kinase (EGF Y845); assay: EGFR tyrosine kinase autophosphorylation in whole cells; format: cell-based; details: listed as compound (I)
[5] = target: JAK1 Y1022/1023 (Homo sapiens, UniProt P23458); assay: JAK1 phosphorylation in whole cells; details: listed as compound (I)
[6] = target: JAK2 Y1007/1008 (Homo sapiens, UniProt O60674); assay: JAK2 phosphorylation in whole cells; details: listed as compound (I)
[7] = system: PC3-MM2 prostate cancer cells; assay: Orthotopic prostate model for in vivo metastases; set-up: species or system Nu/Nu mice; details: PC3-MM2 orthotopic mouse model
[8] = Pharmacokinetic characterization; details: mice, rats and dogs
[9] = 28-day toxicity study; details: dogs
[10] = Oral dosing pharmacokinetics in dogs; format: in vivo

O=C(Cc1ccc(-c2ccc(OCCN3CCOCC3)cc2)cn1)NCc1ccccc1 [Compound (I): 2HCl, 2-(5-(4-(2-morpholinoethoxy)phenyl)pyridin-2-yl)-N-benzylacetamide dihydrochloride salt]
Src-Y416 autophosphorylation ([1]; c-Src527F/NIH-3T3 and HT29 cells): potent inhibitor | phosphorylation of Paxillin Y-31 (Src transphosphorylation substrate) ([1]; c-Src527F/NIH-3T3 cells): inhibited Src trans-phosphorylation | IC50 ([1]; read-out: IC50 for Src-catalyzed transphosphorylation of FAK, Shc, paxillin and Src kinase autophosphorylation, tumor cells): 20 nM | phosphorylation of FAK Tyr 925 (Src transphosphorylation substrate) ([1]; whole cells): inhibited Src trans-phosphorylation | phosphorylation of Shc Y239/240 (Src transphosphorylation substrate) ([1]; whole cells): inhibited Src trans-phosphorylation | phosphorylation of Shc Y239/240 (Src transphosphorylation substrate) ([1]; whole cells, listed as compound (I)): potent inhibitor | induction of apoptosis (Caspase-3 cleavage) [2]: stimulate Caspase-3 and PARP cleavage | FAK autophosphorylation (Y397) [3]: no inhibition | EGFR tyrosine kinase autophosphorylation [4]: does not inhibit | phosphorylation of JAK1 Y1022/1023 [5]: does not inhibit | phosphorylation of JAK2 Y1007/1008 [6]: does not inhibit | primary tumor growth and lymph node metastasis [7]: strong inhibition of both primary tumor growth as well as lymph node metastasis | pharmacokinetic characterization [8]: orally bioavailable and has dose-related increases in drug exposure and maximum plasma concentration | finding considered potentially test article-related ([9]; 0.5 mg/kg/dose BID): minimally to mildly increased alanine aminotransferase | minimal toxic level ([9]; 28-day, oral gavage BID): 0.5 mg/kg/dose | half-life range [10]: 5 to 8 h

Structures can show the parent of a compound that is named as a salt.
